{
  "source": "patent US11951108B2",
  "about": "“Combination therapy for treating cancer” (Epizyme, Inc., priority 2016, dated 2024)",
  "key": {"[1]": {"system": "COV644*", "experiment": "In vitro combination study, ovarian cancer cell line COV644", "conditions": "7+3 model"}, "[2]": {"system": "COV504"}},
  "data": [
    {"smiles": "CS(=O)(=O)CCNCc1ccc(-c2ccc3ncnc(Nc4ccc(OCc5cccc(F)c5)c(Cl)c4)c3c2)o1", "note": "[Lapatinib]", "values": [
      {"measurement": "Synergy or antagonism of second agent with tazemetostat (IC50 shift of second agent)", "setting": "[1]", "value": "B (Synergy > 4× IC50 shift)"},
      {"measurement": "Synergy or antagonism of second agent with tazemetostat (IC50 shift of second agent)", "setting": "[2]", "value": "C (key: B: Synergy > 4× IC50 shift; Synergy > 2× IC50 shift; No Effect; Antagonism; X: Not Tested)"}
    ]}
  ]
}
